Columns and labels:
Assay type in all cases: biochemical
PI3K β = PI3K β (Homo sapiens (Human), UniProt P42338); assay: PI 3-Kinase (human) HTRF assay, p110β/p85α
PI3K γ = PI3K γ (Homo sapiens (Human), UniProt P48736); assay: PI 3-Kinase (human) HTRF assay, p110γ
PI3K δ = PI3K δ (Homo sapiens (Human), UniProt O00329); assay: PI 3-Kinase (human) HTRF assay, p110δ/p85α
PI3K α = PI3K α (Homo sapiens (Human), UniProt P42336); assay: PI 3-Kinase (human) HTRF assay, p110α/p85α
mTORC = mTORC (Homo sapiens (Human), UniProt P42345); assay: mTOR inhibition assay (radiometric or LanthaScreen TR-FRET)

Chains of the proteins cited; added tags and fusions are not shown. Lines headed by an entry give the natural chain unless they say otherwise; changes in a name come on top.
UniProt P42338: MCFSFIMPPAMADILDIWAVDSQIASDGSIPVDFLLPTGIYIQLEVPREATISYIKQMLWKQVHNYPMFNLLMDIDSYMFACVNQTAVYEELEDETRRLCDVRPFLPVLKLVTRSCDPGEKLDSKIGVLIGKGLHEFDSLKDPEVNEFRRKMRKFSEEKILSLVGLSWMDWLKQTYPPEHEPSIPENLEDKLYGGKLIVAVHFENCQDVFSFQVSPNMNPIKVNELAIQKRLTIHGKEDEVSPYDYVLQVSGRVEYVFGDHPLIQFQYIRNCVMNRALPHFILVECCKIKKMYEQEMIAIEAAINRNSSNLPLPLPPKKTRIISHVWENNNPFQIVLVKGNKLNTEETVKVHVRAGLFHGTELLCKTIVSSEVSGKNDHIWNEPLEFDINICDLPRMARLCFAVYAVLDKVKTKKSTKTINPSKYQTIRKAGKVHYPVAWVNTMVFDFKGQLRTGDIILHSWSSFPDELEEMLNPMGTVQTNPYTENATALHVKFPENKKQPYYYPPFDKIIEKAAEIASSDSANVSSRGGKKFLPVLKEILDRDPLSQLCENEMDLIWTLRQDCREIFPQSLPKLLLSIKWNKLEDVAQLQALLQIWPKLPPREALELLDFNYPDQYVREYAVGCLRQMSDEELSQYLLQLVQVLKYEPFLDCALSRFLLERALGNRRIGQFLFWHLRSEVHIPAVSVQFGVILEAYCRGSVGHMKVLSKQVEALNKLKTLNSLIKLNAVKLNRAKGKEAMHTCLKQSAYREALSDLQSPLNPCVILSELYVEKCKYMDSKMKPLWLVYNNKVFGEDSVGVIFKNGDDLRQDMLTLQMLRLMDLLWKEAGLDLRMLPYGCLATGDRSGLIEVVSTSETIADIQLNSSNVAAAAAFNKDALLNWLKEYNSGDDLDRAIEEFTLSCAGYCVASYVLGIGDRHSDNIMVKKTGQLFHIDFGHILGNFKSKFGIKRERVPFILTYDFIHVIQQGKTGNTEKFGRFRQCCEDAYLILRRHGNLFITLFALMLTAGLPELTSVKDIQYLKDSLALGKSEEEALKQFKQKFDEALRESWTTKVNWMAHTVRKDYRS
UniProt P48736: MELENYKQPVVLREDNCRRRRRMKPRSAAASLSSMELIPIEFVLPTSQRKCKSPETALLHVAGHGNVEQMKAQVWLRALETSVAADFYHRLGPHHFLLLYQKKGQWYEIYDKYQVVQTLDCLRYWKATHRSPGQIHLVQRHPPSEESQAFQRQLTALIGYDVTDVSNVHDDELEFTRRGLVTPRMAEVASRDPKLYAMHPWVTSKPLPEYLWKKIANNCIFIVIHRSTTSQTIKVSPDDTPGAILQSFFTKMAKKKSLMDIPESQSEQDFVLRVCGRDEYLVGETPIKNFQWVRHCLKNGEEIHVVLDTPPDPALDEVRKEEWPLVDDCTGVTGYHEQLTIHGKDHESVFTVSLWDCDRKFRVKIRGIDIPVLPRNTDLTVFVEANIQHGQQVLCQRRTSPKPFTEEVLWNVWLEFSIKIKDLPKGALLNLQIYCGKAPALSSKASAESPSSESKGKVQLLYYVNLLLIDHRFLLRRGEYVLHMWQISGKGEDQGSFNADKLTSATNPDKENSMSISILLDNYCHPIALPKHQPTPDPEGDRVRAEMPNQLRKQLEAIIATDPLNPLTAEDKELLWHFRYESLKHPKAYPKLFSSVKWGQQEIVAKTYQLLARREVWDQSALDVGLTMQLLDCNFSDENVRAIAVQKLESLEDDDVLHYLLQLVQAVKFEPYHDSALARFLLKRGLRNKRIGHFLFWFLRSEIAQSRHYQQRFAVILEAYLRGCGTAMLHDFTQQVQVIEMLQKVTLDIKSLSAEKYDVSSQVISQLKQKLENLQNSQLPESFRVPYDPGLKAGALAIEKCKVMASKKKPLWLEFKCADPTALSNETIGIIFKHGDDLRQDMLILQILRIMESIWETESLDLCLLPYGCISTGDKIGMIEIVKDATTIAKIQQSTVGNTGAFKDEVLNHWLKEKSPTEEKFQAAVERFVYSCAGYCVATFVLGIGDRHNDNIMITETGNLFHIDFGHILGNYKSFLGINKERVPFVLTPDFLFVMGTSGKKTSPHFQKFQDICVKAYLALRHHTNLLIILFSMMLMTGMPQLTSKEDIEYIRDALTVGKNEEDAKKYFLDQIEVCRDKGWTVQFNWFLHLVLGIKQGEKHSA
UniProt O00329: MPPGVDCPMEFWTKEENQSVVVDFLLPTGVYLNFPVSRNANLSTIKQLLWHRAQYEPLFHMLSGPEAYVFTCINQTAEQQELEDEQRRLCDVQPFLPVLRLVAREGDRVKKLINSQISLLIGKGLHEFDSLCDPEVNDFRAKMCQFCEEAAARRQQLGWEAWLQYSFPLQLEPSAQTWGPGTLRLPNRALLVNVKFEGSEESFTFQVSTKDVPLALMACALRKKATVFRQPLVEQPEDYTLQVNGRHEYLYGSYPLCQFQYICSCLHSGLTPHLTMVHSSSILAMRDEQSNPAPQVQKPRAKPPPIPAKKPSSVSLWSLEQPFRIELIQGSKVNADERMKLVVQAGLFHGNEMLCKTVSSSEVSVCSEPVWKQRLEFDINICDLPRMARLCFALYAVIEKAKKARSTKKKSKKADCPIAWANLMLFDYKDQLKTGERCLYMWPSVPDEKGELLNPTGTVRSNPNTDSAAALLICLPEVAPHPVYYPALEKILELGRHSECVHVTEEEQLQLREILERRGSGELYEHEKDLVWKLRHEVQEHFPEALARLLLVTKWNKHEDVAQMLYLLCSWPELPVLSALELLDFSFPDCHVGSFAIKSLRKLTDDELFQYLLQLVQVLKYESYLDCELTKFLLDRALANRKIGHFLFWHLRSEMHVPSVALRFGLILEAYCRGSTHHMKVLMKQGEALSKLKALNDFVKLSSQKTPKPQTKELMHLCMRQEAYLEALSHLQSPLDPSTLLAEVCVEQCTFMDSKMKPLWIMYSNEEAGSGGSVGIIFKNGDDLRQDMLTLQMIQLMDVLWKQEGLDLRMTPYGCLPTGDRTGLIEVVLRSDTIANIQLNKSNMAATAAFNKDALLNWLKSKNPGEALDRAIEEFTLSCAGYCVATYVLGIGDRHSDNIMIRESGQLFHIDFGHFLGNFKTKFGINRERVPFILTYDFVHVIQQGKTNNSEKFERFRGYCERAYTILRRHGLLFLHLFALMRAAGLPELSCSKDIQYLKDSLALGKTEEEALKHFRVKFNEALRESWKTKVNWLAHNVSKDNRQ
UniProt P42336, whole entry: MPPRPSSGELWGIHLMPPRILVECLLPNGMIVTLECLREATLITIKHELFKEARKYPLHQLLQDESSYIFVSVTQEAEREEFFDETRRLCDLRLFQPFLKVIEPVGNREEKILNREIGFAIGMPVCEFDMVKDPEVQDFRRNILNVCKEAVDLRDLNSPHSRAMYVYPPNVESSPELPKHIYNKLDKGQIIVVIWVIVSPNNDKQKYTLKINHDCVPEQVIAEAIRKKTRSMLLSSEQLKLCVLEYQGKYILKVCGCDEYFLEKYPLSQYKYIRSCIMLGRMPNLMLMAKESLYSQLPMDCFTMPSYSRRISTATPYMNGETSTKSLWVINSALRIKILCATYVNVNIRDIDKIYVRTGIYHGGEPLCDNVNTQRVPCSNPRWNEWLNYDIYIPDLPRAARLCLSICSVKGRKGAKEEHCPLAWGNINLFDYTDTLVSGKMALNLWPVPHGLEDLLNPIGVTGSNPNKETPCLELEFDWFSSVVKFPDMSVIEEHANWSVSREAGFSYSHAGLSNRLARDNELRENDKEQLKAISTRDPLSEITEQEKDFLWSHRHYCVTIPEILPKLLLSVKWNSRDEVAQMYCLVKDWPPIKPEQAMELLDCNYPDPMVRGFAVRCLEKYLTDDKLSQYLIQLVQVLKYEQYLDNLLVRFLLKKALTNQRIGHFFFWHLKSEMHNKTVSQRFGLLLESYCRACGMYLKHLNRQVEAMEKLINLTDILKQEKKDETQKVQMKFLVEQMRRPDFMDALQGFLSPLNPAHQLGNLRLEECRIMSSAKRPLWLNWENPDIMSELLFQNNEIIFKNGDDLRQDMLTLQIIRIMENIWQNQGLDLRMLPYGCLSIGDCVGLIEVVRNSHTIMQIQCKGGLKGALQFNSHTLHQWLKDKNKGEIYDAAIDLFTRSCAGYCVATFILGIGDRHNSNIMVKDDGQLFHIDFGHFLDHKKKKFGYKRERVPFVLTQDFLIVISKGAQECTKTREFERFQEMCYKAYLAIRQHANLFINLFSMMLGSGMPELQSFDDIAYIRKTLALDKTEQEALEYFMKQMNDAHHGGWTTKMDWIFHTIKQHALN

## Nc1nc2cc(-c3ccc4ncnc(N5CCOCC5)c4c3)ccc2o1 [Compound 22]
PI3K β
  IC50: < 100 nM
PI3K γ
  IC50: < 100 nM
PI3K δ
  IC50: < 100 nM
PI3K α
  IC50: < 100 nM
mTORC
  IC50: < 1000 nM
